Publication PMC7473865, “Repertoire-scale determination of class II MHC peptide binding via yeast display improves antigen prediction” (Nature Communications, 2020)

Tests used:
[1] = biological target: T1, recombinant HLA-DR402 (HLA-DRA1*01:01, HLA-DRB1*04:02) (Homo sapiens, UniProt P01903+P01911, A100E/A169T/F76Y/K127E/L162R/M171V/N62H/P40V/Q125Y/Q99D/R42H/S133A/S149N/S66Y/V209L/W38E); assay: biochemical; type: binding
T1 construct: poly-histidine (C); made in house; host or cells: High Five (Hi5) insect cells, baculovirus (pAcGP67a)

[2] = biological target: T2, recombinant HLA-DR401 (HLA-DRA1*01:01, HLA-DRB1*04:01) (Homo sapiens, UniProt P01903+P01911, A100K/A169T/F76Y/I96L/K127E/L162R/M171V/N62H/P40V/Q125Y/R42H/S133A/S149N/S66Y/V115G/V209L/W38E); assay: biochemical; type: binding
T2 construct: poly-histidine (C); made in house; host or cells: High Five (Hi5) insect cells, baculovirus (pAcGP67a)

Question: `CC[C@H](C)[C@H](NC(=O)[C@@H](NC(=O)[C@H](CCCNC(=N)N)NC(=O)[C@H](CCSC)NC(=O)[C@H](C)NC(=O)[C@H](CCC(N)=O)NC(=O)[C@@H](NC(=O)[C@H](CCSC)NC(=O)[C@H](CCC(N)=O)NC(=O)[C@H](CCCNC(=N)N)NC(=O)[C@H](C)N)C(C)C)[C@@H](C)O)C(=O)NCC(=O)N[C@H](C(=O)N[C@@H](Cc1c[nH]cn1)C(=O)N1CCC[C@H]1C(=O)O)[C@@H](C)O` was tested. Which pIC50 [1] did it give?
Answer: 7.45

Question: How did the pIC50 [2] turn out when `CC[C@H](C)[C@H](NC(=O)[C@@H](NC(=O)[C@H](CCCNC(=N)N)NC(=O)[C@H](CCSC)NC(=O)[C@H](C)NC(=O)[C@H](CCC(N)=O)NC(=O)[C@@H](NC(=O)[C@H](CCSC)NC(=O)[C@H](CCC(N)=O)NC(=O)[C@H](CCCNC(=N)N)NC(=O)[C@H](C)N)C(C)C)[C@@H](C)O)C(=O)NCC(=O)N[C@H](C(=O)N[C@@H](Cc1c[nH]cn1)C(=O)N1CCC[C@H]1C(=O)N[C@@H](CO)C(=O)N[C@@H](CO)C(=O)N[C@@H](CO)C(=O)N[C@@H](C)C(=O)NCC(=O)O)[C@@H](C)O` was run?
Answer: 5.40

pIC50: −log10 of the molar value.
